Source: publication PMC4705222, “Identification of a Catalase-Phenol Oxidase in Betalain Biosynthesis in Red Amaranth (Amaranthus cruentus)” (Frontiers in Plant Science, 2016)

Chains of the proteins cited; added tags and fusions are not shown. Residues count along the entry.
UniProt A0A2Z0PTH5, 1-492: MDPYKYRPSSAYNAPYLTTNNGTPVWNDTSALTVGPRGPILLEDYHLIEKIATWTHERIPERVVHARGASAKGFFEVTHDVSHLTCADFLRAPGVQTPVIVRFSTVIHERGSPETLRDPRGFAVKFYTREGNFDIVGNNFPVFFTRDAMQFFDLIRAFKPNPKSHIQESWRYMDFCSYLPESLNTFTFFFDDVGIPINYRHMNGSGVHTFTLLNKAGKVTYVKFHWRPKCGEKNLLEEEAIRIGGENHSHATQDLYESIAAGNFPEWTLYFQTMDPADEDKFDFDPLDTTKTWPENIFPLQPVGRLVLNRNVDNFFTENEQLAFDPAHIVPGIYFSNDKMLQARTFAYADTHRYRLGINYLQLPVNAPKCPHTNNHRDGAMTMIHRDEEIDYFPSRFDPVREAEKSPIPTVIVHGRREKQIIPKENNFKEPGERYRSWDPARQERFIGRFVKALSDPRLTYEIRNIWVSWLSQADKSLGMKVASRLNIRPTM

Target: AcCATPO (Amaranthus cruentus, UniProt A0A2Z0PTH5)
Assay: catalase activity, H2O2 decrease at […] nm
Details: H2O2 substrate (14 mM in standard assay), pH 7.0, 20 °C

[N-]=[N+]=N
% loss of activity at 1 mM: ~ 95%
